The numbers were not newly measured in PMC2649372 (Biochemistry, 2008), which cites them from elsewhere.

This data set relates to E129D mutant 5-HT3 receptor. The settings on record: E129D vs WT; cited from earlier work.

Take `CN1C2CCCC1CC(NC(=O)c1nn(C)c3ccccc13)C2` (stereo not shown) [granisetron]: the “increase in granisetron Kd” value is given as about 100 fold.
